In patent publication US10112932B2, “Benzoxazepin oxazolidinone compounds and methods of use” (Genentech, Inc., priority 2015, dated 2018) one finds IC50 and EC50 data, which are given here for one compound.

Test [1] deals with CD69 expression in CD19+ CD27− B cells. Description: cells. To be noted: Homo sapiens, B-cell, read-out: B-cell a-IgM CD69 expression IC50, plasma-protein-binding corrected.
Test [2] relates to SW48 (parental) PI3Kα wild-type cells, P-PRAS40. The test is described as follows: Inhibition of P-PRAS40 in SW48 isogenic cells, PI3Kα wild-type parental (Example 902). To be noted: Homo sapiens, SW48, 24 h, read-out: P-PRAS40 SW48 (parental) EC50.
The subject of test [3] is SW48 (E545K) PI3Kα mutant cells, P-PRAS40. Description: Inhibition of P-PRAS40 in SW48 isogenic cells, helical domain mutant E545K (Example 902). As to conditions: Homo sapiens, SW48, 24 h, read-out: P-PRAS40 SW48 (E545K) EC50.
The test system of test [4] is SW48 (H1047R) PI3Kα mutant cells, P-PRAS40. Description: Inhibition of P-PRAS40 in SW48 isogenic cells, kinase domain mutant H1047R (Example 902). As to conditions: Homo sapiens, SW48, 24 h, read-out: P-PRAS40 SW48 (H1047R) EC50.

The structures appear in SMILES notation.

For orientation: IC50 means the point on the concentration scale where inhibition reaches its midpoint. A word on the EC50: it is the concentration at which the effect is half-maximal. Consider `CS(=O)(=O)N1CCN(Cc2cc3nc(-c4cccc5[nH]ncc45)nc(N4CCOCC4)c3s2)CC1` [pictilisib, 4-(2-(1H-indazol-4-yl)-6-((4-(methylsulfonyl)piperazin-1-yl)methyl)thieno[3,2-d]pyrimidin-4-yl)morpholine, reference compound], for which the IC50 in test [1] turned out to be 0.006 µM. Also, the EC50 in test [2] came to 0.0315 µM; in test [3], 0.0284 µM; in test [4] it was 0.0321 µM.
